Test results: patent US10647700B2, “EZH2 inhibitor and use thereof” (TARAPEUTICS SCIENCE INC., priority 2017, dated 2020)

By UniProt entry, the sequences of proteins in these tests, tags left out.
UniProt Q15910, whole entry Y641F: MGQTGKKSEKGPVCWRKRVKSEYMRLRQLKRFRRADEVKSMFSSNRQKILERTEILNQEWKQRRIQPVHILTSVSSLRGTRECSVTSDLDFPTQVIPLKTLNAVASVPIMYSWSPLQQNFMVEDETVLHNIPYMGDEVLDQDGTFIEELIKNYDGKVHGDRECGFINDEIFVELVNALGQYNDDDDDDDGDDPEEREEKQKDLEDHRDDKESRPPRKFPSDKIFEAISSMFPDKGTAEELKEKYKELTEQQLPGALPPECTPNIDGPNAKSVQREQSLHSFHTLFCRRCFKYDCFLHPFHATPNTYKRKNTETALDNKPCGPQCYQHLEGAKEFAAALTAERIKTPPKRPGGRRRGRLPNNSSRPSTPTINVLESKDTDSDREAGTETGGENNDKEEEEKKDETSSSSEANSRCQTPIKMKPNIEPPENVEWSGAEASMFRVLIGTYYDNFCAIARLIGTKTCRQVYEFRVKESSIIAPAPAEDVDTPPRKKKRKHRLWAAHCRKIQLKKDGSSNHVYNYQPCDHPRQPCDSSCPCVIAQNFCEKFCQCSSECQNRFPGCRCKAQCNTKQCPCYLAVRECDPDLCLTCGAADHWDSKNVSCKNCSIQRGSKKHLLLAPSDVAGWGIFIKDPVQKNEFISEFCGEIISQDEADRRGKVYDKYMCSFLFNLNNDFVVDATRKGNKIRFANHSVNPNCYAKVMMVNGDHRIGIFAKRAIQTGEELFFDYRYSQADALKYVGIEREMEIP

Tests used:
[1] = tested on: H3K27m3 methylation in Pfeiffer cells; experiment: Western Blot of H3K27m3 methylation in Pfeiffer cells; type: cell-based; conditions: Homo sapiens, 72 h, read-out: IC50 (μM) pfeiffer
Description: Meanwhile, the inventors further conducted Western Blot with Pfeiffer cells (purchased from ATCC, USA) for verification. […] Effect of compounds on H3K27m3 methylation in cells was assessed.

[2] = target: PRC2 protein complex comprising EZH2(Y641F) (Homo sapiens (Human), UniProt Q15910, Y641F); experiment: EZH2(Y641F) TR-FRET enzymatic activity assay

SMILES	IC50 [1]	activity compared with control compounds in the assay using a TR-FRET kit [2]	IC50 [2]
CCN(C(=O)C1CC1)c1cc(-c2ccc(N3CCN(CC4CC4)CC3)nc2C)cc(C(=O)NCc2c(C)cc(C)[nH]c2=O)c1C [Compound 69, 5-(6-(4-(cyclopropylmethyl)piperazin-1-yl)-2-methylpyridin-3-yl)-N-((4,6-dimethyl-2-oxo-1,2-dihydropyridin-3-yl)methyl)-3-(N-ethylcyclopropanecarboxamido)-2-methylbenzamide]	0.064 µM	superior activity than control compounds GSK126 and EPZ6438	
CCN(C(=O)C1CC1)c1cc(-c2cnc(N3CCN(CC4CC4)CC3)cc2C)cc(C(=O)NCc2c(C)cc(C)[nH]c2=O)c1C [Compound 71, 5-(6-(4-(cyclopropylmethyl)piperazin-1-yl)-4-methylpyridin-3-yl)-N-((4,6-dimethyl-2-oxo-1,2-dihydropyridin-3-yl)methyl)-3-(N-ethylcyclopropanecarboxamido)-2-methylbenzamide]			0.016 µM
